# Measurements reported in article PMC2914574 (Journal of neurochemistry, 2010).
# Sequences of proteins named here, by UniProt entry; tags and fusion partners are left off.
# UniProt Q01959, whole entry: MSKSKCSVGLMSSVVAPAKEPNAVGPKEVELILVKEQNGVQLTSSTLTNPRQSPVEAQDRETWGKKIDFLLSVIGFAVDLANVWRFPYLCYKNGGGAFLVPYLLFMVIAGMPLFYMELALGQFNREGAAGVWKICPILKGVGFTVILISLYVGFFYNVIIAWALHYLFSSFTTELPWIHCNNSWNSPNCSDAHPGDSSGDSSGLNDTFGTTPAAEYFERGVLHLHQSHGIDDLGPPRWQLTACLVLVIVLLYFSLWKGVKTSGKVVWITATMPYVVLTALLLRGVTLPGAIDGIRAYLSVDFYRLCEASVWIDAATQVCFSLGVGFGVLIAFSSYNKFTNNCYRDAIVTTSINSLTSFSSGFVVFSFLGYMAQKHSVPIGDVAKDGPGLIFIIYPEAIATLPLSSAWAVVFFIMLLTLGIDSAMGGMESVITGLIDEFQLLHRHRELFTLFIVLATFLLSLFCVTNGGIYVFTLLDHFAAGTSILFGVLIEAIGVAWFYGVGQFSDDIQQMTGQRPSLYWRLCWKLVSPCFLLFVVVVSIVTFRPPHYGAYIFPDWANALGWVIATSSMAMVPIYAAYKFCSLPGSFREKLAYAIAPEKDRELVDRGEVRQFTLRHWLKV
# Molecular target: WT hDAT (Homo sapiens, UniProt Q01959)
# Assay: inhibition of [3H]DA uptake in intact HEK-hDAT cells
# Type: cell-based
# Settings: 5 min
smiles,measurement,value
"C[C@@H](N)Cc1ccccc1 [(l)-amphetamine, reference compound]","Uptake Kapp, WT",664.6 ± 60.4 nM
